Reference: IntAct's records for PubMed 24855271

Biological target: kap0_human PRKAR1A (UniProt P10644)

Substance: cAMP-dependent protein kinase catalytic subunit alpha (Homo sapiens) (from UniProt P17612) L206R
- effect of a mutation on the interaction: disrupting interaction strength
